Here are results for one substance from patent publication US9376684.

The experiment concerns the target hirudin-CD4 (glycine linker length not stated) (Hirudo medicinalis; human) (UniProt P01050). As to the kind of experiment: flow cytometry, two hirudin-CD4 clones incubated with thrombin up to 82 U/ml. For orientation: A flow cytometer gives signals particle by particle.

For the substance “thrombin (from UniProt P00734 328-363; P00734 364-622) (enzyme)”, the thrombin concentration at which cells were still not saturated (mean fluorescence intensities) was > 82 U/ml and the thrombin concentration at which transfectants were saturated (percentage positive cells) worked out at 41 U/ml.
